Binding of CDR-mutated scFvs to a peptide of the spike HR2 region

Reference: Engelhart et al. 2022, doi:10.1038/s41597-022-01779-4. File: FLAb, binding data.

Target: peptide PDVDLGDISGINAS, taken from heptad repeat 2 (HR2) of SARS-CoV-2 spike.

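The starting antibody came from a phage panning campaign against this peptide. The library (AAYL52) carries one to three amino acid substitutions per variant, with no insertions or deletions. Affinity was read by AlphaSeq, a pooled yeast mating assay with surface-displayed partners. Pairs that bind mate more often; barcode pairs of the diploids are counted by sequencing. Read counts were normalised to the haploid input and turned into Kd by a linear fit to BCL2-family pairs of known affinity, for each replicate. Mating was done three times.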

Parent: Ab-95, a human scFv built as VH, a (GGGGS)3 linker, VL. Only the CDRs of the light chain vary.
VH: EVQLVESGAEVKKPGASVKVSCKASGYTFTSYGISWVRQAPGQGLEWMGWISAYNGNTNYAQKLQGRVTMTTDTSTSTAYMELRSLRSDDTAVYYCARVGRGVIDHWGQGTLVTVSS
VL: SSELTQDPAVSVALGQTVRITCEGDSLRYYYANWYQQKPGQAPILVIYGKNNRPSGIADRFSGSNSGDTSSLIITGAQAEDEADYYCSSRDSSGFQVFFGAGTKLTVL

Each variant is given by its three light chain CDRs, as the data file delimits them; those of the parent are EGDSLRYYYAN, GKNNRPS, SSRDSSGFQVF.
Affinities are written as log10 Kd with Kd in nM; a lower number is a better binder.
A pair that was not seen in that replicate is written "ND"; this usually means weak binding, but a binder can also be missed.
As a blank, each scFv also met three strains without target: over library AAYL52, 28% of these pairings were detected, typically at 3.91 and seldom below 2.90. Also given: how often the same scFv was detected with the empty control strains, with their mean in brackets.

| # | CDR-L1 | CDR-L2 | CDR-L3 | replicates, log10 nM | control signals |
|---|---|---|---|---|---|
| 1 | EMSSLRYYYAN | GKNNRPS | SSYDSSGFQVF | 4.72 ND 4.44 | 3/9 (3.90) |
| 2 | EGDSCRYYKAN | GKNNRPS | SSRDSSGFQVF | 2.83 2.96 2.98 | 1/9 (4.04) |
| 3 | EGDSLWYYYAN | GKNNRPS | SSRDSSGFQVY | 3.01 2.92 1.99 | 2/9 (4.89) |
| 4 | EGDSLDYYYAN | PKNNRPI | SSRDSSGFQVF | ND ND ND | 3/9 (3.97) |
| 5 | EYDSLRYYYAN | GKNNRPS | ASRDSSNFQVF | 4.33 ND ND | 4/9 (3.72) |
| 6 | EGDSLRYYYAN | GKCNRPS | SSRNSSGTQVF | 4.96 ND ND | 4/9 (3.93) |
| 7 | EGDSLRYYYAN | GKQNRPS | DSRDSSGFQVF | 4.14 2.62 3.25 | 2/9 (4.61) |
| 8 | EGDSLRAYYAH | GKNNRPS | SSRDKSGFQVF | ND 4.90 ND | 1/9 (3.05) |
| 9 | EGDSYRYYYNN | GKNNRPS | SSRHSSGFQVF | 4.42 4.38 ND | 1/9 (3.57) |
| 10 | EGISLRYYYAN | GKNYRPS | SSRDTSGFQVF | 3.50 2.99 2.95 | 1/9 (2.69) |
| 11 | EGDPLRYYYAN | GKNNRPW | SSRDSSGGQVF | 3.42 4.19 4.33 | 3/9 (3.83) |
| 12 | EGDELRYYYAN | GKNNRPS | SSRDESGFQVF | 2.19 2.37 2.03 | 2/9 (4.61) |
| 13 | EGDHLRFYYAN | GKNNRPE | SSRDSSGFQVF | 2.39 2.79 1.82 | 2/9 (3.40) |
| 14 | EGDSLRYYYAN | GKNNRPR | SSRISSGFYVF | 3.36 3.01 2.96 | 4/9 (3.19) |
| 15 | EGDSLYYYKGN | GKNNRPS | SSRDSSGFQVF | ND 4.13 3.49 | 4/9 (4.13) |
| 16 | EGDILRPYYAN | GKNNLPS | SSRDSSGFQVF | ND ND ND | 2/9 (4.16) |
| 17 | EGQSLRHYYAN | GKNNRPS | SSRDSSGFQVF | 1.82 1.66 1.38 | 4/9 (4.24) |
| 18 | EGDSLRYYYAY | GKNNRRS | DSRDSSGFQVF | ND ND 3.81 | 1/9 (3.82) |
| 19 | EGDSLRYYTAN | GKNNPPM | SSRDSSGFQVF | 5.51 3.37 ND | 5/9 (4.00) |
| 20 | YGDSLRYYYAN | GQNNRPS | SSRTSSGFQVF | 2.98 2.72 2.28 | 3/9 (3.92) |
| 21 | EGDSLFYYYAN | GKPNRCS | SSRDSSGFQVF | 3.54 ND 3.51 | 5/9 (4.47) |
| 22 | EGDSLKYYYAC | GKNNRPS | SRRDSSGFQVF | 4.96 4.11 ND | 2/9 (3.56) |
| 23 | EGDNLRYYYAN | GKNNRPS | SSWDSSGFQVF | 3.19 3.05 2.24 | 2/9 (3.61) |
| 24 | EGDTLRYYYAN | GKNNRPS | SSRDSSGWQVW | 4.41 4.06 2.79 | 2/9 (3.34) |
| 25 | EGDSLRYYYAN | GKNCHPS | SSRCSSGFQVF | 3.29 3.85 3.26 | 5/9 (4.09) |
| 26 | EGDSLRYYQAN | IKNNRPS | SSSDSSGFQVF | 5.69 5.70 4.33 | 6/9 (4.24) |
| 27 | EGDSLRYYYAN | GKNNRPS | SSRDSQDFDVF | 3.31 3.97 3.38 | 1/9 (3.54) |
| 28 | EGDSLRYYYAE | GMNNRPS | SSRDSSGIQVF | 4.19 ND ND | 4/9 (4.02) |
| 29 | EGDSLRYYYAN | GKNNRPS | SSRENSGFLVF | ND 3.66 ND | 0/9 |
| 30 | EGDSLRWYYAN | GENNRPS | SSRDSSGFIVF | 3.24 3.41 3.22 | 0/9 |

The first 4 entries again:

| CDR-L1 | CDR-L2 | CDR-L3 | replicates, log10 nM | control signals |
|---|---|---|---|---|
| EMSSLRYYYAN | GKNNRPS | SSYDSSGFQVF | 4.72 ND 4.44 | 3/9 (3.90) |
| EGDSCRYYKAN | GKNNRPS | SSRDSSGFQVF | 2.83 2.96 2.98 | 1/9 (4.04) |
| EGDSLWYYYAN | GKNNRPS | SSRDSSGFQVY | 3.01 2.92 1.99 | 2/9 (4.89) |
| EGDSLDYYYAN | PKNNRPI | SSRDSSGFQVF | ND ND ND | 3/9 (3.97) |